The term Ki denotes a dissociation constant, usually derived from enzyme kinetics or from competition with a known ligand. High values mean lower affinity, low ones higher affinity.

Test [1] addresses T1, rabbit liver carboxylesterase (rCE) (Oryctolagus cuniculus, UniProt P12337).
T1 sequence (P12337 19-565): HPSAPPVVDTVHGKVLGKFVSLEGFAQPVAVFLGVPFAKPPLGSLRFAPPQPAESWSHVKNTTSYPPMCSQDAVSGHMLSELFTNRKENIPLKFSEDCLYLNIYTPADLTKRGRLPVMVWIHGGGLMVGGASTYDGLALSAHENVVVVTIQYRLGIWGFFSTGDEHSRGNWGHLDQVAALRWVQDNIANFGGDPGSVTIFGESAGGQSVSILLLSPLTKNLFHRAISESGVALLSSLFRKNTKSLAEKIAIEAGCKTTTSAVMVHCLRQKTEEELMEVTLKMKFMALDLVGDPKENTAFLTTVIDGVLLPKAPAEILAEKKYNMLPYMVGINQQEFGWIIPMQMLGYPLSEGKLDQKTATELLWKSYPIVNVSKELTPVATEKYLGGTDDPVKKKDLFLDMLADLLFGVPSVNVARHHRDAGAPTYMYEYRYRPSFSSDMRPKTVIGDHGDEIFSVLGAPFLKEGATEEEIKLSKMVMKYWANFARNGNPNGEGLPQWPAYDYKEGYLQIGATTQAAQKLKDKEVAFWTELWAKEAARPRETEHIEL
Kind of test: biochemical.

Test [2] deals with T2, human liver carboxylesterase (hCE1) (Homo sapiens, UniProt P23141).
T2 sequence (P23141 18-567): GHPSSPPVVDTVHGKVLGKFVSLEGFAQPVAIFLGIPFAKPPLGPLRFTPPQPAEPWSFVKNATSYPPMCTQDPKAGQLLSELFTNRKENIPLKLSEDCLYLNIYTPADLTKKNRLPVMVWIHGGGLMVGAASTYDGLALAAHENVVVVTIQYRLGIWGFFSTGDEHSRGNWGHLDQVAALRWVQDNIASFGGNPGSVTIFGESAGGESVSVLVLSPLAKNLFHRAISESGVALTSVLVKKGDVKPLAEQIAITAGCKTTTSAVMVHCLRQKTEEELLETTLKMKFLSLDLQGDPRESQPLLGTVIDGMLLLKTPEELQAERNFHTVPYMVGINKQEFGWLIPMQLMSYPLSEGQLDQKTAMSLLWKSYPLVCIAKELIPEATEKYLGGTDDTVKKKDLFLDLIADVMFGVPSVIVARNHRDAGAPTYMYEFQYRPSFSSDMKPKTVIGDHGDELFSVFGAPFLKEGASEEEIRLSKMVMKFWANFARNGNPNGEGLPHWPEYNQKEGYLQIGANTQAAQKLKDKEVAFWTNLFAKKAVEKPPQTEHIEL
Kind of test: biochemical.

Compound `COc1ccc(C(=O)C(=O)c2ccc(OC)c([N+](=O)[O-])c2)cc1[N+](=O)[O-]` [Compound 37, 1,2-bis(4-methoxy-3-nitrophenyl)ethane-1,2-dione] yielded an inhibition constant (Ki) in test [1] of over 100 µM.
Consider `O=C(C(=O)c1ccc(O)c([N+](=O)[O-])c1)c1ccc(O)c([N+](=O)[O-])c1` [Compound 36, 1,2-bis(4-hydroxy-3-nitrophenyl)ethane-1,2-dione], for which the Ki in test [2] was over 100 µM.

The record behind these values is US7973034B2, “Amide, aryl sulfonamide, aryl urea, and α,β-diketone derived carboxylesterase inhibitors, and their methods of use” (priority 2003, dated 2011).
